Our source for the Kd values is ChEMBL document CHEMBL5244201, “Non-covalent albumin-binding ligands for extending the circulating half-life of small biotherapeutics” (Medchemcomm, 2019).

The chains behind the UniProt entries cited, without tags or fusion partners.
UniProt P02770, whole entry: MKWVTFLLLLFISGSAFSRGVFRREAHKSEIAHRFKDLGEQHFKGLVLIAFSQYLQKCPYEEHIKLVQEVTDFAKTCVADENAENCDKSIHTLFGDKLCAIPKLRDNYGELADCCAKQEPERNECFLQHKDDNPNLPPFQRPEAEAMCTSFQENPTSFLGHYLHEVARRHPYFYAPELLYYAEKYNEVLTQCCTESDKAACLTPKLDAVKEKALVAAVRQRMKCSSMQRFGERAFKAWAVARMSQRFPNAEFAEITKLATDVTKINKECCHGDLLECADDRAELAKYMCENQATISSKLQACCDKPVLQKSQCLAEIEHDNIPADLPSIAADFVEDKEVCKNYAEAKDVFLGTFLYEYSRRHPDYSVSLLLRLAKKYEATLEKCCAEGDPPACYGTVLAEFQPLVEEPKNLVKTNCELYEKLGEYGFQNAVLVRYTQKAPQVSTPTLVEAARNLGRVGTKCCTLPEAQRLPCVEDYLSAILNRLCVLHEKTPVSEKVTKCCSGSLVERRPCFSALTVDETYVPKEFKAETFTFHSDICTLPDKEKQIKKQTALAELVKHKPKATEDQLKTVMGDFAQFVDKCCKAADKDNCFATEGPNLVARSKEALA
UniProt P02768, whole entry: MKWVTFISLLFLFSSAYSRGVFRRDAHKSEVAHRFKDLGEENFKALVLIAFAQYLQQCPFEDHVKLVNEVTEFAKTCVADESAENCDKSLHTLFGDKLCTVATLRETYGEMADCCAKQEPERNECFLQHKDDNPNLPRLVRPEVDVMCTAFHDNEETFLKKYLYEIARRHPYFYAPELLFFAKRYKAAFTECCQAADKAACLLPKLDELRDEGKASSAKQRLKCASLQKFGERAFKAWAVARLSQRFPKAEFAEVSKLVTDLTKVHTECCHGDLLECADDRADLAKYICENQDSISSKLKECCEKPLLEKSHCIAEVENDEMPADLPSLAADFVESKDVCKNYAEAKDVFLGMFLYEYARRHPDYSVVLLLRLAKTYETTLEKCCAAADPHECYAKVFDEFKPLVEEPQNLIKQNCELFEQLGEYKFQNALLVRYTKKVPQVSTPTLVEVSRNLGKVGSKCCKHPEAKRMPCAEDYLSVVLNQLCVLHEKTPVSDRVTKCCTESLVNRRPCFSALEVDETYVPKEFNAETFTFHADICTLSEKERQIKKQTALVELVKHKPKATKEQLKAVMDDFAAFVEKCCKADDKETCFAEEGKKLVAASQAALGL
UniProt P49065, whole entry: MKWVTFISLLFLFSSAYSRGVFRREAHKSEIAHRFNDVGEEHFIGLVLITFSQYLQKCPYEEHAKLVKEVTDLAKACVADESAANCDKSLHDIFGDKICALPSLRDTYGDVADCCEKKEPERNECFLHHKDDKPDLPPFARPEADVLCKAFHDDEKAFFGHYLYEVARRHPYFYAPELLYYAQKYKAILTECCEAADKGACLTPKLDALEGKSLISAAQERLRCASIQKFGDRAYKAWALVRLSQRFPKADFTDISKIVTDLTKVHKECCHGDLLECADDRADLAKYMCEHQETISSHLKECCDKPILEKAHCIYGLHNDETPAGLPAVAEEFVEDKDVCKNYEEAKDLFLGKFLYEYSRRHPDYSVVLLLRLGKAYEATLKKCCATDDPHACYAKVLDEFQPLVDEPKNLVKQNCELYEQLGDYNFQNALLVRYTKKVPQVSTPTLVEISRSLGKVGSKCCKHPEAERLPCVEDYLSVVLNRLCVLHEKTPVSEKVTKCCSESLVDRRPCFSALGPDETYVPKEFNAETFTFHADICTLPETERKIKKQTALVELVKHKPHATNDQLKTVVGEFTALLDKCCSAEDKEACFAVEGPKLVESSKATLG

The target in test [1] is Albumin (Rattus norvegicus, UniProt P02770). The test can be described thus: Binding affinity to rat albumin by fluorescence polarization assay. On the technique in general: Polarisation of emitted light reports the rotation of a fluorescent probe.
The target in test [2] is Albumin (Homo sapiens, UniProt P02768). The test can be described thus: Binding affinity to human albumin by fluorescence polarization assay.
Test [3] deals with Albumin (Oryctolagus cuniculus, UniProt P49065). As to the kind of experiment: Binding affinity to rabbit albumin by fluorescence polarization assay.

Usually Kd stands for a measure of binding affinity in units of concentration. With `CCCCCCCCCCCCCCCC(=O)NCCCC[C@H](NC(=O)[C@H](CCC(=O)O)NC(=O)[C@H](Cc1ccc(O)cc1)NC(=O)[C@H](CCC(=O)O)NC(=O)COCCOCCNC(=O)c1ccc2c(c1)C(=O)OC21c2ccc(O)cc2Oc2cc(O)ccc21)C(=O)N[C@@H](CCC(=O)O)C(=O)N[C@@H](Cc1ccc(O)cc1)C(=O)N[C@@H](CCC(=O)O)C(N)=O`, the Kd at Albumin [1] was found to be 220 nM; at Albumin [2], 39 nM; at Albumin [3] it was 320 nM.
